Results reported in patent US11123292B2, “Use of biocompatible microdroplets for the treatment of atherosclerosis, heart disease and stroke” (priority 2014, dated 2021).

Key:
[1] = 37° C.; cited from earlier work
[2] = Relative Energy Difference (RED) with cholesterol, calculated from HSP; settings: RED=Ra/Ro, Ro of cholesterol 12.6

## Butanol [reference compound]
[1]
  mass fraction of cholesterol which will dissolve in a pure solution of the alcohol: 11.8%
[2]
  Relative Energy Difference (RED) with cholesterol: 0.944
